The record followed here is PubChem BioAssay AID1745844 (Carcinogenic Potency Database (CPDB), 2022).

The series concerns rodent lifetime carcinogenesis bioassay, tumor incidence TD50. Put plainly: chronic cancer bioassays in animals – CPDB, compiled studies (AID 1745844). As to conditions: by gavage; for carcinogen call: dosed 52 weeks.

The structures appear in SMILES notation. The source made the active and inactive calls. How the calls were made is not given here.

The term TD50 denotes the 50% point of the dose-response relation for the toxic effect studied. A low value points to greater toxicity.

For the compound `CC12CCC(CC1)C(C)(C)O2`, under “mouse, strain CFLP, males, site: any site (literature study), lesion: several types, types named in the paper, dosed 80 weeks, study length 104 weeks”, the TD50 stood at 119 mg/kg/day.
On to `O=c1[nH]c(=O)n([C@H]2CCCO2)cc1F`, for which the carcinogen call reads like this: (mouse, strain CBA x C57BL, females, site: any site (literature study), lesion: several types, types named in the paper, study length 84 weeks) “inactive: negative”; (mouse, strain CBA x C57BL, females, site: liver, lesion: one or several types, types not named, study length 84 weeks) “inactive: negative”; (mouse, strain CBA x C57BL, males, site: any site (literature study), lesion: several types, types named in the paper, study length 86 weeks) “inactive: negative”; (mouse, strain CBA x C57BL, males, site: liver, lesion: one or several types, types not named, study length 86 weeks) “inactive: negative”; (rat, strain Wistar, females, site: any site (literature study), lesion: several types, types named in the paper, study length 117 weeks) “inactive: negative”; (rat, strain Wistar, females, site: liver, lesion: one or several types, types not named, study length 117 weeks) “inactive: negative”. For the same compound, the carcinogen call (rat, strain Wistar, males, site: any site (literature study), lesion: several types, types named in the paper, study length 126 weeks) is “inactive: negative” and the carcinogen call (rat, strain Wistar, males, site: liver, lesion: one or several types, types not named, study length 126 weeks) was “inactive: negative”.
